The numbers were not newly measured in patent US8338486B2, “Methods for the treatment of CNS-related conditions” (Adamas Pharmaceuticals, Inc., priority 2004, dated 2012), which cites them from elsewhere.

For this data set the following is noted: humans; cited from earlier work.

With `CCN(C)C(=O)Oc1cccc([C@H](C)N(C)C)c1` [EXELON ®/Rivastigmine], the “Human PK T½” value was 1.5 h.
